# Experimental data reported in patent publication US9302996B2, “Continuous arycyclic compound” (MITSUBISHI TANABE PHARMA CORPORATION, priority 2010, dated 2016).
# System: C57BL/6J mice
# Test: Antifeeding activity (high fat diet intake up to 4 hours)
# Settings: male C57BL/6J mice, 5 mg/kg oral, food ingested up to 4 hours
smiles,measurement,value
CC(C)(COc1ncc(-c2ccc(-c3ncc(C(F)(F)F)[nH]3)c(Cl)c2)cn1)C(=O)O,Antifeeding rate (5 mg/kg),58%
